Laboratory results: US9512114B2, “Substituted aminopyrimidine compounds and methods of use” (Calitor Sciences, LLC, priority 2013, dated 2016)
pIC50: −log10 of the molar value.

Sequences of proteins named here, by UniProt entry; tags and fusion partners are left off. A change or cut given only in a name is not applied to a line headed by its entry.
UniProt O00329: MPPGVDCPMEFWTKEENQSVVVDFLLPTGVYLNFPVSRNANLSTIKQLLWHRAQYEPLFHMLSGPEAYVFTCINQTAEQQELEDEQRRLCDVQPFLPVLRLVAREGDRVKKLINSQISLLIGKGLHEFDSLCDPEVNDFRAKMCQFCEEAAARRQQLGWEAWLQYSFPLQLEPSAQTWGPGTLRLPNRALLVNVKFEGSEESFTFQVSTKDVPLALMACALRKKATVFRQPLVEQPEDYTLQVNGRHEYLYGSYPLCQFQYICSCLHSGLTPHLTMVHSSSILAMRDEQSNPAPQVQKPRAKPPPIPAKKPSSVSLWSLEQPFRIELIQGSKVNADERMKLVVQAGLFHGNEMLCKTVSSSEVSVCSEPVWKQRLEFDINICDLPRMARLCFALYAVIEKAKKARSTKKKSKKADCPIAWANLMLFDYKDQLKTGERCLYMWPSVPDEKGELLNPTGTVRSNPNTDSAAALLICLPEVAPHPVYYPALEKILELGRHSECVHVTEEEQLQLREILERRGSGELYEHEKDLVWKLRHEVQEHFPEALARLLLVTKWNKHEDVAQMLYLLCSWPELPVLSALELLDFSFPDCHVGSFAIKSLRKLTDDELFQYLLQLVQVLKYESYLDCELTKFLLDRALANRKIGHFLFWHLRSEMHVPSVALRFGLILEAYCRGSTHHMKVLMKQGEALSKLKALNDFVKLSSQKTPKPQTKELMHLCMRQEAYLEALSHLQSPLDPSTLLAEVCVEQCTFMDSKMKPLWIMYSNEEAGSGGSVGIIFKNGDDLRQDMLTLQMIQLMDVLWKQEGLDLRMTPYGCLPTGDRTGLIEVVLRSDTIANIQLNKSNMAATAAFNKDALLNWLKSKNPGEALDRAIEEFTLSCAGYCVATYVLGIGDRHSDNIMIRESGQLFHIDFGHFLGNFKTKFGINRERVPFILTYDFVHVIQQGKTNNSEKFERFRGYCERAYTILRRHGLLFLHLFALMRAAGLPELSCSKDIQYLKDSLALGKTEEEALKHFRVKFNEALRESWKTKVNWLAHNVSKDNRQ
UniProt P42338: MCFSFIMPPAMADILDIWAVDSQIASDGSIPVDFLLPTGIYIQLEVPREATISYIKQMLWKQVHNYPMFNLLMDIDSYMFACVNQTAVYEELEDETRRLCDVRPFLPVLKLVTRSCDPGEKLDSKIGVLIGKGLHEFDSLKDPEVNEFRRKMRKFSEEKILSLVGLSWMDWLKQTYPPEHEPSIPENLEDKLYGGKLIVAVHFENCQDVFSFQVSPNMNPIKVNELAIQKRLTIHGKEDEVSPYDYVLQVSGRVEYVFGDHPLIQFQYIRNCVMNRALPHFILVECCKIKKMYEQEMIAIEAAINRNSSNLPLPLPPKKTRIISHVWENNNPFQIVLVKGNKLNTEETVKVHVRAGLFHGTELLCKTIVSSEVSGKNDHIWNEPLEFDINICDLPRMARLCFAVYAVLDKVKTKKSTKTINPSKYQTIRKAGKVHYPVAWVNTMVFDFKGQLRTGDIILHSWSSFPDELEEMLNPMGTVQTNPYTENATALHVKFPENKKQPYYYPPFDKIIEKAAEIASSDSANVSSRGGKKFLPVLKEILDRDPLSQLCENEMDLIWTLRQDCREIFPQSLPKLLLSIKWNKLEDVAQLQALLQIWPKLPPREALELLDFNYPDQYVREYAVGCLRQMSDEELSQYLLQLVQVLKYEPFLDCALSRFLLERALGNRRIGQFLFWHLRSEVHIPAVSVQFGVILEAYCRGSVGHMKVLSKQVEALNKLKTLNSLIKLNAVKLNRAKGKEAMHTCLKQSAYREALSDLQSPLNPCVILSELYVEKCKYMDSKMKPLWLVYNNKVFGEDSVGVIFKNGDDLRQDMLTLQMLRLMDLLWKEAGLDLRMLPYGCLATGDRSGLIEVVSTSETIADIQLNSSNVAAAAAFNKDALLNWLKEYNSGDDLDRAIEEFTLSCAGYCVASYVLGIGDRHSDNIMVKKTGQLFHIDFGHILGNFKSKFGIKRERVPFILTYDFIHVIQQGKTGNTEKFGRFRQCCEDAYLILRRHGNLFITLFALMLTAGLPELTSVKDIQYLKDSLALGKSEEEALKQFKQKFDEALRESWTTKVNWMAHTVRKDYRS

Legend:
PI3K (p110δ/p85α) (h) = PI3K (p110δ/p85α) (h) (Homo sapiens (Human), UniProt O00329); test: PI3K (p110δ/p85α) (h) non-radioactive HTRF kinase assay; type: biochemical; details: performed at Millipore UK Ltd
Experimental: (§1) The above assay procedure can be used to determine the IC50 for inhibition and/or the inhibition constant, Ki. […] The IC50 value is estimated by preparing a 10 point curve using a ½ log dilution series (for example, a typical curve may be prepared using the following compound concentrations: 10 μM, 3 μM, 1 μM, 0.3 μM, 0.1 μM, 0.03 μM, 0.01 μM, 0.003 μM, 0.001 μM and 0 μM).
PI3K (p110δ/p85α) (h) [Non-Radioactive Assay]
(§2) PI3K (p110δ/p85α) (h) is incubated in assay buffer containing 10 μM phosphatidylinositol-4, 5-bisphosphate and MgATP (concentration as required). The reaction is initiated by the addition of the MgATP mix. After incubation for 30 minutes at room temperature, the reaction is stopped by the addition of stop solution containing EDTA and biotinylated phosphatidylinositol-3,4,5-trisphosphate. Finally, detection buffer is added, which contains europium-labelled anti-GST monoclonal antibody, GST-tagged GRP1 PH domain and streptavidin-allophycocyanin. The plate is then read in timeresolved fluorescence mode and the homogenous time-resolved fluorescence (HTRF) signal is determined according to the formula HTRF=10000×(Em665 nm/Em620 nm).
(§3) The kinase assays described herein were performed at Millipore UK Ltd, Dundee Technology Park, Dundee DD2 1SW, UK.

PI3K (p110β/p85α) (h) = PI3K (p110β/p85α) (h) (Homo sapiens (Human), UniProt P42338); test: PI3K (p110β/p85α) (h) non-radioactive HTRF kinase assay; type: biochemical; details: performed at Millipore UK Ltd
Experimental: as §1
PI3K (p110β/p85α) (h) [Non-Radioactive Assay]
as §2, with “([…])” for “(p110δ/p85α)”
as §3

pIC50 (PI3K (p110δ/p85α) (h))	pIC50 (PI3K (p110β/p85α) (h))	Structure (SMILES)
8.70	–	CC[C@H](Nc1ncnc(N)c1-c1nc(C)no1)c1cc2cccc(Cl)c2c(=O)n1-c1ccccc1 [Ex. 3, (S)-3-(1-((6-amino-5-(3-methyl-1,2,4-oxadiazol-5-yl)pyrimidin-4-yl)amino)propyl)-8-chloro-2-phenylisoquinolin-1(2H)-one]
8.22	–	CC[C@H](Nc1ncnc(N)c1-c1nnc(C)o1)c1cc2cccc(Cl)c2c(=O)n1-c1ccccc1 [Ex. 5, (S)-3-(1-((6-amino-5-(5-methyl-1,3,4-oxadiazol-2-yl)pyrimidin-4-yl)amino)propyl)-8-chloro-2-phenylisoquinolin-1(2H)-one]
7.74	–	CC[C@H](Nc1ncnc(N)c1-c1nnc(C)o1)c1cc2cccc(C)c2c(=O)n1C1CC1 [Ex. 6, (S)-3-(1-((6-amino-5-(5-methyl-1,3,4-oxadiazol-2-yl)pyrimidin-4-yl)amino)propyl)-2-cyclopropyl-8-methylisoquinolin-1(2H)-one]
–	7.48	Cc1noc(-c2c(N)ncnc2N[C@@H](C)c2cc3cccc(Cl)c3c(=O)n2-c2ccccc2)n1 [Ex. 8, (S)-3-(1-((6-amino-5-(3-methyl-1,2,4-oxadiazol-5-yl)pyrimidin-4-yl)amino)ethyl)-8-chloro-2-phenylisoquinolin-1(2H)-one]
–	6.65	Cc1nnc(-c2c(N)ncnc2N[C@@H](C)c2cc3cccc(Cl)c3c(=O)n2-c2ccccc2)o1 [Ex. 9, (S)-3-(1-((6-amino-5-(5-methyl-1,3,4-oxadiazol-2-yl)pyrimidin-4-yl)amino)ethyl)-8-chloro-2-phenylisoquinolin-1(2H)-one]
–	6.99	Cc1nc(-c2c(N)ncnc2N[C@@H](C)c2cc3cccc(Cl)c3c(=O)n2C2CC2)no1 [Ex. 11, (S)-3-(1-((6-amino-5-(5-methyl-1,2,4-oxadiazol-3-yl)pyrimidin-4-yl)amino)ethyl)-8-chloro-2-cyclopropylisoquinolin-1(2H)-one]
7.34	–	CC[C@H](Nc1ncnc(N)c1-c1ccon1)c1cc2cccc(F)c2c(=O)n1-c1ccccc1 [Ex. 19, (S)-3-(1-((6-amino-5-(isoxazol-3-yl)pyrimidin-4-yl)amino)propyl)-8-fluoro-2-phenylisoquinolin-1(2H)-one]
7.82	–	CC[C@H](Nc1ncnc(N)c1-c1noc(C)n1)c1cc2cccc(Cl)c2c(=O)n1C1CC1 [Ex. 21, (S)-3-(1-((6-amino-5-(5-methyl-1,2,4-oxadiazol-3-yl)pyrimidin-4-yl)amino)propyl)-8-chloro-2-cyclopropylisoquinolin-1(2H)-one]
8.52	–	Cc1noc(-c2c(N)ncnc2N[C@@H](C)c2cc3cccc(Cl)c3c(=O)n2-c2cccc(F)c2)n1 [Ex. 23, (S)-3-(1-((6-amino-5-(3-methyl-1,2,4-oxadiazol-5-yl)pyrimidin-4-yl)amino)ethyl)-8-chloro-2-(3-fluorophenyl)isoquinolin-1(2H)-one]
–	7.42	Cc1noc(-c2c(N)ncnc2N[C@@H](C)c2cc3cccc(Cl)c3c(=O)n2C2CC2)n1 [Ex. 24, (S)-3-(1-((6-amino-5-(3-methyl-1,2,4-oxadiazol-5-yl)pyrimidin-4-yl)amino)ethyl)-8-chloro-2-cyclopropylisoquinolin-1(2H)-one]
